# Tested on: Gli3
# Assay: Hh ligand-dependent Gli3 processing in Shh-EGFP cells
# Format: cell-based
# Conditions: ShhN stimulation
compound,measurement,value
"CC1=C2C[C@H]3[C@@H](CC=C4C[C@@H](O)CC[C@@]43C)[C@@H]2CC[C@]12O[C@@H]1C[C@H](C)CN[C@H]1[C@H]2C [cyclopamine, reference compound]","Effect on Gli3 processing, Gli3FL/Gli3R ratio",abrogated that effect

# Reference: patent US9611276B2, “Imidazo bicyclic iminium compounds as antitumor agents” (THE BOARD OF TRUSTEES OF THE LELAND STANFORD JUNIOR …, priority 2012, dated 2017)
